Assay results: publication PMC5670201 (Scientific Reports, 2017)

By UniProt entry, the sequences of proteins in these tests, tags left out. Residues count along the entry.
UniProt P02768, 25-609: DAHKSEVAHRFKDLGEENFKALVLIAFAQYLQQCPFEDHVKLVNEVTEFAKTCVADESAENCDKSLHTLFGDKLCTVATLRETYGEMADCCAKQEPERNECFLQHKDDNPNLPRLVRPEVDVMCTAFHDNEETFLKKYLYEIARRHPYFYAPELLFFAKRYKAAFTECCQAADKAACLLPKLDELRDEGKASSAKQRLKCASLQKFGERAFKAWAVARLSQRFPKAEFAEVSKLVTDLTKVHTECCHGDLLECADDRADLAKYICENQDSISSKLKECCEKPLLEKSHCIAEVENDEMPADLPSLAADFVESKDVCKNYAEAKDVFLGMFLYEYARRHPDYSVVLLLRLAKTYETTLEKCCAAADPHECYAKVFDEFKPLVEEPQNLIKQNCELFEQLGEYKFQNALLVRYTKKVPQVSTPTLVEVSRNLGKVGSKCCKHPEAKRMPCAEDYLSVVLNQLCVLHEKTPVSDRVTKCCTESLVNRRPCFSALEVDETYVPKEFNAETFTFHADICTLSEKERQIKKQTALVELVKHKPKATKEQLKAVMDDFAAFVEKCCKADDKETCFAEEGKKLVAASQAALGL

Tests used:
HSA Peptide 40 = target: T1, HSA Peptide 40 (Homo sapiens, UniProt P02768); assay: biochemical; type: binding; conditions: for binding to HSA Peptide 40: Biacore SPR screen, immobilized HSA Peptide 40 and vice versa
T1 construct: HSA 40 (479-496); purchased New England Peptide (Gardner, MA, USA)
Description: All peptides were run in the pM-uM concentration ranges. […] Short gaps in binding curves at transition times are from removal of solvent spikes during analysis. Binding kinetics were determined via Biacore Evaluation Software analysis of SPR sensograms. […] Structure, PDB 1BJ1, was visualized using UCSF Chimera.
The 3D structure of the positive variable region peptides were predicted by PEPFOLD 3.0 to compare to their beta hairpin structure within the full antibody[9]–[11] (Fig. 4d).
(§1) Peptides were run in the pM-uM concentration range. […] (b) Multiple sequence alignment of the variable region peptides in question, performed by Clustal Omega. […] (d) 3D structure prediction of peptides in solution performed by PEP-FOLD 3.0, visualized in Chimera. […] Pembrolizumab included as a negative control.
Peptides were re-suspended and stored in HBS running buffer at either 5 or 10 mg/ml, with up to 10% DMSO added as needed. All antibodies, peptides, as well as HSA, were immobilized on Biacore (GE Healthcare, Chicago, IL) CM5 chips via amine coupling according to manufacture protocol. Immobilization scouting was performed with pH 4.0–5.5 acetate at micromolar concentration ranges, to determine ideal immobilization conditions. […] All peptides and proteins were screened at multiple concentrations from pico to millimolarity, with an association time of 120 to 180 seconds and a dissociation time from 180 to 1200 seconds. Binding kinetics were determined using Biacore Evaluation Software and a 1:1 fit model.
The mixture was frozen, evaporated, and re-suspended in HPLC grade water with 0.1% trifluoroacetic acid. The digest was applied to a Waters X-Bridge Protein BEH C4 column (Waters, Milford, MA) and eluted off at a flow rate of 1 ml/min and a gradient of 0–60% Acetonitrile with 0.1% trifluroacetic acid over 60 minutes.

Human Serum Albumin = Human Serum Albumin (Homo sapiens, UniProt P02768); assay: Biacore SPR, antibody variable domain peptides and antibodies against human serum albumin; type: binding; conditions: for binding to human serum albumin: Biacore SPR screen, immobilized HSA and vice versa
Source text: as §1, with “The 3D structure of the positive variable region peptides were predicted by PEPFOLD 3.0 to compare to their beta hairpin structure within the full antibody[9]-[11] (Fig. 4d). […] Peptides” for “Peptides”

binding to HSA Peptide 40 (HSA Peptide 40)	binding to human serum albumin (Human Serum Albumin)	Kd (HSA Peptide 40) [µM]	kon (HSA Peptide 40; read-out: Kinetic Binding Parameters against HSA Peptide 40: kon) [M⁻¹ s⁻¹]	Kd (Human Serum Albumin; human, Biacore SPR, CM5 amine coupling, peptide over immobilized HSA and vice versa, pM-uM, 1:1 fit, read-out: Kinetic Binding Parameters Against Human Serum Albumin: KD) [pM]	SMILES
bound both analytes	bound both analytes				CC(C)C[C@H](NC(=O)[C@@H](NC(=O)CNC(=O)[C@H](CCC(N)=O)NC(=O)CNC(=O)[C@H](Cc1c[nH]c2ccccc12)NC(=O)[C@@H](NC(=O)[C@H](CC(=O)O)NC(=O)[C@H](Cc1ccccc1)NC(=O)[C@H](Cc1ccc(O)cc1)NC(=O)[C@H](Cc1c[nH]c2ccccc12)NC(=O)[C@H](Cc1c[nH]cn1)NC(=O)[C@@H](N)CO)C(C)C)[C@@H](C)O)C(=O)N[C@H](C(=O)N[C@H](C(=O)N[C@H](C(=O)N[C@@H](CO)C(=O)N[C@@H](CO)C(=O)N[C@@H](C)C(=O)N[C@@H](CO)C(=O)N[C@H](C(=O)O)[C@@H](C)O)C(C)C)[C@@H](C)O)C(C)C [BVP2]
		0.743	26.3		CC(C)C[C@H](NC(=O)[C@@H](NC(=O)CNC(=O)[C@H](CCC(N)=O)NC(=O)CNC(=O)[C@H](Cc1c[nH]c2ccccc12)NC(=O)[C@@H](NC(=O)[C@@H](N)CC(=O)O)C(C)C)[C@@H](C)O)C(=O)N[C@H](C(=O)N[C@H](C(=O)N[C@H](C(=O)N[C@@H](CO)C(=O)N[C@@H](CO)C(=O)N[C@@H](C)C(=O)N[C@@H](CO)C(=O)O)C(C)C)[C@@H](C)O)C(C)C [Bevacizumab Heavy Chain 12]
bound both analytes	bound both analytes			5.33e+06	CSCC[C@H](NC(=O)[C@H](C)NC(=O)[C@H](Cc1ccc(O)cc1)NC(=O)[C@H](Cc1ccccc1)NC(=O)CNC(=O)[C@H](CC(=O)O)NC(=O)CNC(=O)CNC(=O)[C@H](Cc1c[nH]c2ccccc12)NC(=O)[C@H](CCCNC(=N)N)NC(=O)[C@H](CO)NC(=O)[C@H](CS)NC(=O)[C@H](Cc1ccc(O)cc1)NC(=O)[C@@H](N)Cc1ccc(O)cc1)C(=O)N[C@@H](CC(=O)O)C(=O)N[C@@H](Cc1ccc(O)cc1)C(=O)N[C@@H](Cc1c[nH]c2ccccc12)C(=O)NCC(=O)N[C@@H](CCC(N)=O)C(=O)NCC(=O)O [TVP1]
